Patent publication US10172907B2, “Compositions comprising β-arrestin 1 and methods of use thereof for therapeutic modulation of aldosterone levels in heart disease” (NOVA SOUTHEASTERN UNIVERSITY, priority 2010, dated 2019)

How the values were obtained:
AT1R [1] = molecular target: T1, AT1R (Homo sapiens, UniProt P30556); assay: Biased antagonism of sartans for AT1R-stimulated βarr vs. G-protein-mediated signaling (FIG. 6); conditions: both IC50 in nM; <1 biased for βarr antagonism, >1 biased towards G-protein antagonism
AT1R [2] = molecular target: T1, AT1R; assay: Inhibition of SII-induced activation of βarr2 by human AT1R in vitro (FIG. 1A); conditions: % normalized signal

ratio of IC50 for AT1R-βarr antagonism to IC50 for G-protein antagonism (AT1R [1])	relative potency for inhibition of SII-induced activation of βarr2 by human AT1R (AT1R [2]; listed as valsartan)	SMILES	relative potency for inhibition of SII-induced activation of βarr2 by human AT1R (AT1R [2])
0.95	–	CCCc1nc2c(C)cc(-c3nc4ccccc4n3C)cc2n1Cc1ccc(-c2ccccc2C(=O)O)cc1 [TEL, Telmisartan]	–
0.23	the most potent	CCCCC(=O)N(Cc1ccc(-c2ccccc2-c2nnn[nH]2)cc1)[C@H](C(=O)O)C(C)C [VAL, Valsartan]	the most potent inhibitors

SMILES	ratio of IC50 for AT1R-βarr antagonism to IC50 for G-protein antagonism (AT1R [1])	relative potency for inhibition of SII-induced activation of βarr2 by human AT1R (AT1R [2]; listed as valsartan)	relative potency for inhibition of SII-induced activation of βarr2 by human AT1R (AT1R [2])
CCCCc1nc(Cl)c(CO)n1Cc1ccc(-c2ccccc2-c2nn[nH]n2)cc1 [LOS, Losartan]	2.45	–	the least potent βarr inhibitors
